This passage reports LD50 results from US3953497A, “2,4,6-Triiodo-5-methoxyacetamido-N-methylisophthalamic acid and salts, acyl halides and esters thereof” (Mallinckrodt, Inc., priority 1974, dated 1976).

Structures are written as SMILES.

The nature of data set [1]: in vivo. To be noted: mouse, intracerebral, fixed volumes of various concentrations, seven day observation, meglumine salt, read-out: LD50 of Meglumine Salt, Intracerebral (Mice). An excerpt: (§1) The techniques utilized are outlined below.
II. Intracerebral Toxicity in Mice
Swiss Albino mice (Charles River) were used. […] The animals were observed immediately after injections and daily throughout a seven day observation period.

The nature of data set [2]: in vivo. The note with it: rat, intracisternal, two day observation, meglumine salt, read-out: LD50 of Meglumine Salt, Intracisternal (Rats).
Description: as §1
III. Intracisternal Toxicity in Rats
Sprague Dawley (Carworth) rats were used. […] After dosing, the animals were housed individually, and observed for immediate reactions and periodically for a two day observation period.

What is called LD50 is the dose at which mortality reaches 50%. Turning to `CNC(=O)c1c(I)c(NC(C)=O)c(I)c(C(=O)O)c1I` [Iothalamic Acid, 5-acetamido-2,4,6-triiodo-N-methylisophthalamic acid], in the data set “in vivo [1]”, the LD50 at 168 h is 280 mg/kg. For the same compound, the LD50 at 48 h in the data set “in vivo [2]” is 86 mg/kg.
